{"source": "BindingDB's records for patent US10322118", "about": "(Dartmouth College, 2019)", "target": "T1, Putative hydrolase (Pseudomonas aeruginosa (strain UCBPP-PA14), UniProt A0A0H2ZD27)", "T1 sequence (A0A0H2ZD27 whole entry)": "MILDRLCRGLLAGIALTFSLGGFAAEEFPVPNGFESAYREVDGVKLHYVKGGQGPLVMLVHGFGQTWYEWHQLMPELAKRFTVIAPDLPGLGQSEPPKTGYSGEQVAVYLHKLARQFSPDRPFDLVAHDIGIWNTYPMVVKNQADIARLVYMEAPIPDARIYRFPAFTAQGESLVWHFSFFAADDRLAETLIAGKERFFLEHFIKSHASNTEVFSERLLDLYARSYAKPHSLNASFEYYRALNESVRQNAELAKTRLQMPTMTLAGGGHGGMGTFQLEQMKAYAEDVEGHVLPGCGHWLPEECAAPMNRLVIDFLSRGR", "assay": "Biochemical Characterization of Cif Inhibitors"}
{"smiles": "CC(C)c1cc(Oc2c(Br)cc(NC(=O)CC(=O)O)cc2Br)ccc1O", "note": "[US10322118, Entry 8b]", "values": [{"measurement": "IC50", "result": 2.7, "unit": "µM"}]}
